ChEMBL document CHEMBL3272207, “Structure-activity relationship in cinnamamides. 2. Synthesis and pharmacological evaluation of some (E)- and (Z)-N-alkyl-alpha, beta-dimethylcinnamamides substituted on the phenyl group” (J Med Chem, 1977)

Assay: Toxicity in po dosed albino Icem-CET (SPF Caw) mouse assessed as mortality measured after 24 to 72 hrs
Type: organism-based
Details: in vivo

For O=C1NC(=O)C(c2ccccc2)(c2ccccc2)N1 [PHENYTOIN], the LD50 was 200 mg/kg.
